One may read the EC50 as the concentration at which the effect is half-maximal. One may read the Ki as the dissociation constant of the complex between target and ligand, obtained from inhibition or displacement.

Molecules are shown by their SMILES.

The record followed here is ChEMBL document CHEMBL5725934, “Phosphorus-substituted quinoxaline-type piperidine compounds and uses thereof” (2017).

The target of test [1] is Nociceptin receptor (Homo sapiens, UniProt P41146). Nature of the test: In Vitro ORL-1 Receptor Binding Assay: Radioligand binding assays (screening and dose-displacement) used 0.1 nM [3H]-nociceptin (NEN; 87.7 Ci/mmole) with 10-20 μg membrane protein in a final volume of 500 μL binding buffer (10 mM MgCl2, 1 mM EDTA, 5% DMSO, 50 mM HEPES, pH 7.4). Non-specific binding was determined in the presence of 10 nM unlabeled nociceptin (American Peptide Company). All reactio.

Test [2] concerns the target Kappa-type opioid receptor (Homo sapiens, UniProt P41145). As to the kind of experiment: In Vitro Kappa-Opioid Receptor Binding Assay: κ-Opioid Receptor Binding Assay Procedures: Membranes from recombinant HEK-293 cells expressing the human kappa opioid receptor (kappa) (cloned in house) were prepared by lysing cells in ice cold hypotonic buffer (2.5 mM MgCl2, 50 mM HEPES, pH 7.4) (10 mL/10 cm dish) followed by homogenization with a tissue grinder/Teflon pestle. Membranes were collect.

Test [3] has as its target Mu-type opioid receptor (Homo sapiens, UniProt P35372). As to the kind of experiment: In Vitro Mu-Opioid Receptor Binding Assay: μ-Opioid Receptor Binding Assay Procedures: Radioligand binding assays were conducted using freshly thawed membranes expressing human μ-receptors (Perkin Elmer, Shelton, Conn.). Radioligand dose-displacement binding assays for human μ-opioid receptors used 0.2 nM[3H]-diprenorphine (NEN, Boston, Mass.), with 5-20 mg membrane protein/well in a final volume.

For test [4], the target named is Delta-type opioid receptor (Homo sapiens, UniProt P41143). Nature of the test: In Vitro Delta-Opioid Receptor Binding Assay: δ-Opioid Receptor Binding Assay Procedures: Radioligand dose-displacement assays used 0.2 nM [3H]-Naltrindole (NEN; 33.0 Ci/mmole) with 10-20 μg membrane protein (recombinant delta opioid receptor expressed in CHO-K1 cells; Perkin Elmer) in a final volume of 500 μL binding buffer (5 mM MgCl2, 5% DMSO, 50 mM Trizma base, pH 7.4). Non-specific binding wa.

Take `C[C@@H]1C[C@@H]2C[C@H](C1)C[C@H](N1[C@@H]3CCC[C@H]1C[C@@H](n1c(=O)c(NCCP(=O)(O)O)nc4ccccc41)C3)C2`: in test [1], the concentration for a half-maximal effect (EC50) was 2.92 nM and the inhibitory constant (Ki) was 2.92 nM.
As to `CC1(C)[C@H]2CC[C@@H](CCN3[C@@H]4CCC[C@H]3C[C@@H](n3c(=O)c(P(=O)(O)O)nc5ccccc53)C4)[C@@H]1C2`, the concentration giving a half-maximal response (EC50) in test [2] came out at 20000 nM.
Consider `C[C@@H]1C[C@@H]2C[C@H](C1)C[C@H](N1[C@@H]3CCC[C@H]1C[C@@H](n1c(=O)c(CCP(=O)(O)O)nc4ccccc41)C3)C2`, for which the inhibition constant Ki in test [1] is 3.4 nM.
In the case of `CC1C[C@@H]2C[C@H](C1)C[C@H](N1[C@@H]3CCC[C@H]1C[C@@H](n1c(=O)c(P(=O)(O)OCOC(=O)c4ccccc4)nc4ccccc41)C3)C2` (stereo partly drawn), the inhibition constant (Ki) in test [1] was 12.2 nM.
For `C[C@@H]1C[C@@H]2C[C@H](C1)C[C@H](N1[C@@H]3CCC[C@H]1C[C@@H](n1c(=O)c(/C=C/P(=O)(O)O)nc4ccccc41)C3)C2`, in test [1], the EC50 amounted to 8.9 nM and the Ki was found to be 5.49 nM. In test [3], this molecule yielded an inhibitory constant (Ki) of 505 nM.
Regarding `CCOP(=O)(OCC)c1nc2ccccc2n([C@H]2C[C@H]3CC[C@@H](C2)N3C23CC4CC(CC2C4)C3)c1=O`, the EC50 in test [1] turned out to be 184 nM. The Ki in test [1] is 48.1 nM; in test [3], 429 nM; in test [2] it was 31.5 nM.
For the molecule `CC1C[C@@H]2C[C@H](C1)C[C@H](N1[C@@H]3CCC[C@H]1C[C@@H](n1c(=O)c(N4CC=C(P(C)(=O)O)CC4)nc4ccccc41)C3)C2` (stereo partly drawn), in test [1], the EC50 came to 26.6 nM and the inhibitory constant (Ki) worked out at 6.34 nM.
As for `O=c1c(P(=O)(O)O)nc2ccccc2n1[C@H]1C[C@H]2CCC[C@@H](C1)N2C1CCCCCCC1`, the EC50 in test [1] is 174 nM. The inhibition constant Ki in test [2] is 1420 nM.
`O=c1c(NCCP(=O)(O)O)nc2ccccc2n1[C@H]1C[C@H]2CCC[C@@H](C1)N2[C@H]1C[C@@H]2CCC[C@@H](C2)C1`: in test [1], the concentration giving a half-maximal response (EC50) amounted to 10.8 nM and the Ki worked out at 24.1 nM.
Turning to `O=c1c(P(=O)(O)O)nc2ccccc2n1[C@H]1C[C@H]2CCC[C@@H](C1)N2[C@H]1C[C@@H]2CCC[C@@H](C2)C1`, in test [1], the EC50 amounted to 19.3 nM and the Ki was 7.51 nM.
For `C[C@@H]1C[C@@H]2C[C@H](C1)C[C@H](N1[C@@H]3CCC[C@H]1C[C@@H](n1c(=O)c(P(=O)(O)O)nc4ccccc41)C3)C2`, in test [1], the EC50 was 2.49 nM and the Ki was 1 nM. In addition, the Ki in test [4] was 2040 nM.
